This passage reports stoichiometry N results from article PMC6368252.

Several values for one entry are separate records, joined by “and”; a condition that tells them apart may be missing. Equal entries are not always repeated.

The target in experiment [1] is MYC-tagged Gpi1 (glucose-6-phosphate isomerase), wild-type (mouse) (UniProt P06745). Put plainly: cross-linking; HeLa cells co-transfected with Gpi1 and an empty vector, Oxr1-FL or Oxr1-C; scraped in PBS with 1 mM DSP, 30 min at room temperature, quenched with 50 mM Tris pH 7.8; non-reducing, unboiled samples on 8% SDS-PAGE, western blot; dimeric and tetrameric forms lost with β-mercaptoethanol and boiling.

Experiment [2] addresses Gpi1 (glucose-6-phosphate isomerase), endogenous in mouse cerebellum (mouse (endogenous in cerebellum)) (UniProt P06745). Put plainly: non-reducing SDS-PAGE and western blot of tissue extract; cerebella of P18 Oxr1+/+ and Oxr1d/d mice homogenised in PBS; no cross-linker; non-reducing conditions, 8% SDS-PAGE, western blot for Gpi1; control samples with β-mercaptoethanol and boiled.

Regarding “MYC-tagged Gpi1 (glucose-6-phosphate isomerase), wild-type (from UniProt P06745 1-558) (enzyme)”, the stoichiometry N in experiment [1] is 2 and 4.

Consider “Gpi1 (glucose-6-phosphate isomerase), endogenous in mouse cerebellum (from UniProt P06745 1-558) (enzyme)”, for which the stoichiometry N in experiment [2] was 4 and 2.
